{"source": "patent US20130252831A1", "about": "“METHOD OF DIAGNOSING EARLY STAGE NON-SMALL CELL LUNG CANCER” (H. Lee Moffitt Cancer Center and Research Institute, Inc., priority 2010, published 2013)", "origin": "cited, not measured here", "test_system": "EGFR-mutant NSCLC", "details": "randomized phase III trial (Zhou et al.); cited from earlier work", "data": [{"smiles": "COc1cc2ncnc(Nc3ccc(F)c(Cl)c3)c2cc1OCCCN1CCOCC1", "note": "[gefitinib]", "values": [{"measurement": "efficacy compared with platinum-based chemotherapy", "result": "superior to platinum-based chemotherapy"}]}]}
